{"source": "patent US6090780A", "about": "“Histidyl-proline diketopiperazine and method of use” (Chandon Prasad, priority 1999, dated 2000)", "test": "Serum CHP level (radioimmunoassay) after 7 days of CHP in drinking water", "assay_type": "in vivo, C57BL mice", "settings": "for AVERAGE SERUM LEVEL (mean ± SEM): 7 days, C57BL mice", "text": "One way to increase brain CHP levels is through exogenous administration of CHP. […] Moreover, the measurement of CHP in serum has been obtained for mice and further supports the viability of exogenous CHP administration in humans. In these experiments, twenty adult male C57BL mice obtained from Jackson Laboratories were housed individually in light controlled rooms for a period of at least ten days after arrival with free access to Purina Chow and water. The lights were cycled on and off every twelve hour period. Each cage was fitted with 250 ml bottles having drip proof drinking spouts on both sides of a food bin containing Purina Chow. For the experiment, rats were divided into four groups of five mice each. Each group was treated with a different dosage of CHP dissolved in 250 milliliters of sterile water for a period of seven days. On the eighth day the mice were sacrificed and trunk blood was collected in glass test tubes. The blood was stored on ice and allowed to clot for 2 hours and centrifuged at 5° C. for 30 minutes at 2000 rpm. The serum was then collected and stored at -70° C. until processed for CHP radio-immunoassay. The radioimmunoassay involved incubating at 4-5° C. a mixture containing 0.1 ml of various dilutions of serum sample, 0.1 ml of 0.25% bovine serum albumin in phosphate buffered saline, 0.1 ml of rabbit CHP antibody and 0.1 ml of I^125 -CHP. After 48 hours incubation, free and antibody bound tracers were separated by adding 1 ml of 17.5% polyethylene glycol, MW 6000 containing bovine gamma-globulin (4 mg/ml) followed by centrifugation for 20 minutes. The supernatant was discarded and the pellet was counted for radioactivity.", "data": [{"substance": "Histidyl-proline diketopiperazine [CHP]", "values": [{"measurement": "CHP serum levels after exogenous administration in water", "setting": "ANOVA: F=52.51, p<0.0001", "result": "significantly increased"}, {"measurement": "AVERAGE SERUM LEVEL (mean ± SEM)", "setting": "CHP 1 μg/ml in each bottle", "result": "1.14 ± 0.139", "unit": "ng/mL"}, {"measurement": "AVERAGE SERUM LEVEL (mean ± SEM)", "setting": "CHP 5 μg/ml in each bottle", "result": "1.96 ± 0.43", "unit": "ng/mL"}, {"measurement": "AVERAGE SERUM LEVEL (mean ± SEM)", "setting": "CHP 10 μg/ml in each bottle", "result": "3.46 ± 0.58", "unit": "ng/mL"}]}]}
